These are literature values, as cited in PMC6176901 (ChemMedChem, 2018).

By IC50 is commonly meant the concentration that gives 50% inhibition.

Molecules are shown by their SMILES.

Data set [1] has as its target T1, Drosophila melanogaster lysosomal α-mannosidase (LManII) (Drosophila melanogaster, UniProt Q9VKV1).
T1 sequence (Q9VKV1 25-1080): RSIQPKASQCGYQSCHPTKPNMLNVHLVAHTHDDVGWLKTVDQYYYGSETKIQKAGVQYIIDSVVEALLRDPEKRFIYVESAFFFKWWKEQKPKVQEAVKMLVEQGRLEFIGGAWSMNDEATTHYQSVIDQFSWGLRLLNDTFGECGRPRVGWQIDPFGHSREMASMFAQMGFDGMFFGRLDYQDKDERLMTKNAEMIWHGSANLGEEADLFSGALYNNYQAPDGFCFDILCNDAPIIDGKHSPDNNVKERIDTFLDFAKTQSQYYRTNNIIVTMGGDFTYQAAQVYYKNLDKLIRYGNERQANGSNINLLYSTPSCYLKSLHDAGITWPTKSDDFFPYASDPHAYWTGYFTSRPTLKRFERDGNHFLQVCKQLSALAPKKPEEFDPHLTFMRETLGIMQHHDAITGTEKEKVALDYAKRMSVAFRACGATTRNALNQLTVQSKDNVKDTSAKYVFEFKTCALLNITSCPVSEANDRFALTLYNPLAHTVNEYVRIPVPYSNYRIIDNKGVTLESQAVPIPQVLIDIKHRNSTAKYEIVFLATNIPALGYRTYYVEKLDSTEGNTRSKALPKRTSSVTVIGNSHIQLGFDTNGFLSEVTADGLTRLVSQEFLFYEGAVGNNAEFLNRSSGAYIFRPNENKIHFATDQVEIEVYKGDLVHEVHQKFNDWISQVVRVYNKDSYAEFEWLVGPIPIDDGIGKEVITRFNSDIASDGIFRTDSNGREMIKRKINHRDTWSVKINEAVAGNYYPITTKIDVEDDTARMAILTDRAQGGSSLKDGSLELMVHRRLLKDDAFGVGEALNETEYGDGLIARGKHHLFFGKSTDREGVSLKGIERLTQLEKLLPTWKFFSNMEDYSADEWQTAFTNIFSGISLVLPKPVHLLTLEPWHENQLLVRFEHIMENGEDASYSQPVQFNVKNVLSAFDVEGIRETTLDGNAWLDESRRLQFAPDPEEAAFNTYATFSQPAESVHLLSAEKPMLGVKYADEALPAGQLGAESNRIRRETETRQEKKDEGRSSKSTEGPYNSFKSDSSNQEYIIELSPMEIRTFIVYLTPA
Particulars: read-out: LManII IC50; ref 9q; cited from earlier work.

The target of data set [2] is T2, Drosophila melanogaster Golgi α-mannosidase (GMIIb) (Drosophila melanogaster, UniProt Q9VF33).
T2 sequence (Q9VF33 31-1249): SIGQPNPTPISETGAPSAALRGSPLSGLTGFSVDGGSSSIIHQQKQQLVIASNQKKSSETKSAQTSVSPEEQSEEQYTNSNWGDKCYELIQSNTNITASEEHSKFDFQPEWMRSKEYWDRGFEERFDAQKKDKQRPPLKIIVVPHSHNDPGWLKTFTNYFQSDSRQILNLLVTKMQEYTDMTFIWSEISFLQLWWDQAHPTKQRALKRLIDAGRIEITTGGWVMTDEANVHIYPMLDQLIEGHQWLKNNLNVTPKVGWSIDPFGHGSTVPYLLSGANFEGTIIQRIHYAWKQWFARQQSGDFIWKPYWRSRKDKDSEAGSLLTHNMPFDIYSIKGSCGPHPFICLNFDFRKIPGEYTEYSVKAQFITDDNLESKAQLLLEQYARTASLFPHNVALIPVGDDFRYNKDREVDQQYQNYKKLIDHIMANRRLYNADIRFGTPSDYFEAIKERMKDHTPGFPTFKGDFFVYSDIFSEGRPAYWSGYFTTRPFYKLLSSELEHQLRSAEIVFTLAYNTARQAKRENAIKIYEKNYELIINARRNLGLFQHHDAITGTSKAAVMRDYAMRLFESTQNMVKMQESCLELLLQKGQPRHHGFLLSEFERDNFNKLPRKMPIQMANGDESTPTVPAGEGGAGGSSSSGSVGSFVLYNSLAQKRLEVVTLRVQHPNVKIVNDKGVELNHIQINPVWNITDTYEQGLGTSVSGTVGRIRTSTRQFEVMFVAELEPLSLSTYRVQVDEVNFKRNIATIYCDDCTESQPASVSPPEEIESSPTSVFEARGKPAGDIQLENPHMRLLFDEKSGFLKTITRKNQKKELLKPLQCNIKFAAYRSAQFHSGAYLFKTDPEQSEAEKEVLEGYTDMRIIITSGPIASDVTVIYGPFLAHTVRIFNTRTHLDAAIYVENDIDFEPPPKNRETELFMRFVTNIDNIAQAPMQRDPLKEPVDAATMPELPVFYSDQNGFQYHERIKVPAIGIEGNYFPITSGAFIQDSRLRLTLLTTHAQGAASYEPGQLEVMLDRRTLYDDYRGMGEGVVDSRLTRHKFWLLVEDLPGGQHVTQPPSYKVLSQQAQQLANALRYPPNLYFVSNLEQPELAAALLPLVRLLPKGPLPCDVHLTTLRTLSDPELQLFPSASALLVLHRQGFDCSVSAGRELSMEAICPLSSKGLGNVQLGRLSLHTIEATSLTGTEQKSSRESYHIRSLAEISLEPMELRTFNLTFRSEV
Particulars: read-out: GMIIb IC50; ref 9q; cited from earlier work.

With `O[C@H]1[C@H]2[C@H](O)CCCN2C[C@H]1O` [Compound 1, (1S,2R,8R,8aR)-trihydroxy-indolizidine], the IC50 in data set [1] was 110 nM; in data set [2], 50 nM.
